# Assay results reported in patent US6924268B2, “Method for inactivating gonadotrophs” (Colorado State University Research Foundation, priority 1989, dated 2005).
# Molecular target: T1, GnRH receptor (Bos taurus, UniProt P32236)
# T1 construct: from tissue; host or cells: bovine pituitary membranes
# T1 sequence (P32236 1-328): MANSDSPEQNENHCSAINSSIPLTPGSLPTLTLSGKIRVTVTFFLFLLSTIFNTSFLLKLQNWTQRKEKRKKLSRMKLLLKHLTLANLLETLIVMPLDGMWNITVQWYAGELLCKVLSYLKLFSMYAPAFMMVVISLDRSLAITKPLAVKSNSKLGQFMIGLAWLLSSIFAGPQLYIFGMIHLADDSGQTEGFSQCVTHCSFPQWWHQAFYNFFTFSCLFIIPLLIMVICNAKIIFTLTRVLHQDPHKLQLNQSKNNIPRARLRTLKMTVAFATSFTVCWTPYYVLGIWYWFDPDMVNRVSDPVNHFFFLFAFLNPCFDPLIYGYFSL
# Assay: Conjugate binding: displacement of 125I-D Ala6-GnRH-ethylamide from bovine pituitary membranes
# Conditions: data not shown
substance,measurement,value
gonadotropin-releasing hormone [GnRH],"binding activity relative to [D-Lys6, desGly10]-GnRH-ethylamide",about 1/30
